Molecular target: T1, Farnesoid X receptor (FXR) (Homo sapiens, UniProt Q96RI1)
T1 sequence (Q96RI1 1-476 isoform Q96RI1-1): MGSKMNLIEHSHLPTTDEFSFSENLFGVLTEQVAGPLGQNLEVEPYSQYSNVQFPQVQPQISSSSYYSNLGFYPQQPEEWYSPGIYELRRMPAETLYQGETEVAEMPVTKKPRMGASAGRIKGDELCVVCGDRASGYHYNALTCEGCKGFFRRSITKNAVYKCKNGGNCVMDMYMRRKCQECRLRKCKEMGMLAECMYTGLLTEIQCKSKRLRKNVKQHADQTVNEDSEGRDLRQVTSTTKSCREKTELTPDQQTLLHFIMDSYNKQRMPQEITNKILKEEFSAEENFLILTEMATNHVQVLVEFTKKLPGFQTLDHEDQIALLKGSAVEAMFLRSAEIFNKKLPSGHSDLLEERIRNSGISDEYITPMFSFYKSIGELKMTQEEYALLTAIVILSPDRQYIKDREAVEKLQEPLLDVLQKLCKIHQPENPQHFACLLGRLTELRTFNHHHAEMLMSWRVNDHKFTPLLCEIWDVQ
Conditions: organoids, 10 μM, 72 hours

Chains of the proteins cited; added tags and fusions are not shown. Lines headed by an entry give the natural chain unless they say otherwise; changes in a name come on top.
UniProt Q96RI1: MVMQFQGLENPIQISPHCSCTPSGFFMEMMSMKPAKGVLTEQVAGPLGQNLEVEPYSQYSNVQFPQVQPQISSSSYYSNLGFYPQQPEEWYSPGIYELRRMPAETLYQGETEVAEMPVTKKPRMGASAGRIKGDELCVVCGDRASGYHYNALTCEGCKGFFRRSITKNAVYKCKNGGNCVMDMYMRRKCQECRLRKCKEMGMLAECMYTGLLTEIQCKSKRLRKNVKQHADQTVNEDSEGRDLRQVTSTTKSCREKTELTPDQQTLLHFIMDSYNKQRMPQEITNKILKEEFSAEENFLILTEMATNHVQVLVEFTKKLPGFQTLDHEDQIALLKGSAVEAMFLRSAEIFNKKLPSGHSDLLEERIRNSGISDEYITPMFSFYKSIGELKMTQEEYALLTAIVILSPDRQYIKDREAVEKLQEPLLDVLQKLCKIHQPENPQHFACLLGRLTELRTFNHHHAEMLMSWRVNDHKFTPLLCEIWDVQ

C/C=C1\C(=O)C[C@H]2[C@@H]3CCC4=CC(=O)CC[C@]4(C)[C@H]3CC[C@]12C [z-22 guggulsterone, Z-guggulsterone]
effect on the Farnesoid X receptor (FXR): inhibition of the Farnesoid X receptor (FXR)

From patent US20250327033A1, “Methods of Expanding Cholangiocytes” (priority 2021, published 2025)
